The source of these data is patent US8765138B2 (priority 2004, dated 2014).

Where “and” joins values, the source holds several entries; their conditions need not be identical. Equal entries are not always repeated. Some results are limits rather than exact numbers.

One series deals with HCV RNA replicon. Kind of series: HCV RNA replicon assay in Huh7 ET cells. As to conditions: High Test Conc. 2, IFN control. It counts as cell-based.
A further series has as its system Huh7 ET. The series is described as follows: Cytotoxicity in Huh7 ET cells (HCV replicon assay). The conditions noted are these: High Test Conc. 2, IFN control.

Take “IFN alpha-2b: IFN alpha-2b, control in the HCV RNA replicon assay”: the EC90 with HCV RNA replicon (Confirmatory dose response) is 0.54 Fold Dilution and 0.38 Fold Dilution. Moreover, in the series with HCV RNA replicon (Primary Assay, single dose), the “Actvty % inhib. virus control” value is 94.7% and 85.6%. The “Cytotoxicity % cell control” value in the series on Huh7 ET (Primary Assay, single dose) was 95.1% and 81.6%. Also, the IC90 in the series with Huh7 ET (cytotoxicity, Confirmatory dose response) is >2.0 Fold Dilution and >2 Fold Dilution.
